Values quoted from earlier work in patent US20220394981A1, “MICRONUTRIENT FORMULATIONS THAT CONTROL PLANT PATHOGENS” (priority 2021, published 2022).

How the values were obtained:
[1] = cited from earlier work
[2] = cited from earlier work; remark: listed apart in the source

## ethylenediamine-N,N′-bis(2-hydroxyphenyl acetic acid) [EDDHA]
[1]
  LogK Fe3+ (stability constant): 35.0
[2]
  LogK Fe2+ (stability constant): 14.3
